Measurements taken from ChEMBL document CHEMBL2021912, “Synthesis, cytotoxicity and apoptosis of cyclotriphosphazene compounds as anti-cancer agents” (Eur J Med Chem, 2012).

Key:
Vero = assay: Cytotoxicity against african green monkey Vero cells after 24 hrs at 37 degC by MTT assay; assay type: cell-based; conditions: for CC50: read-out: ID50, chlorocebus sabaeus
HT-29 = assay: Cytotoxicity against human HT-29 cells after 24 hrs at 37 degC by MTT assay; assay type: functional; conditions: read-out: ID50
Outline: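 Vero and HT-29 grown in DMEM/10% FBS, Hep2 in EMEM/10% FBS; seeded at 2 × 10^4 (Vero, Hep2) or 3 × 10^4 (HT-29) cells/mL; exposed 24 h to 0.2–50 µg/mL compound, final DMSO 1%; MTT 1 mg/mL 2 h at 37 °C, formazan in DMSO, OD 540 nm; % of DMSO control; ID50 by probit; triplicate wells, three repeats.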

Structure (SMILES) | ID50 (Vero; chlorocebus sabaeus) | CC50 (Vero) [µM] | IC50 (HT-29) [µM]
ClP1(Cl)=NP(Cl)(Cl)=NP(Nc2ccccc2)(Nc2ccccc2)=N1 | Non-toxic | – | –
FC1(F)COP2(Cl)=NP(Cl)(Cl)=NP(Cl)(=N2)OCC1(F)F (configuration not stated) | – | 5.84 | –
ClP1(Cl)=NP(Cl)(Cl)=NP(Sc2ccccc2)(Sc2ccccc2)=N1 | – | 3.02 | –
FC1(F)COP2(=NP(Cl)(Cl)=NP(Cl)(Cl)=N2)OCC1(F)F | – | 3.55 | –
ClP1(Cl)=NP(Cl)(Cl)=NP(Cl)(Cl)=N1 | – | 3.16 | 7.14
CC1(C)COP2(=NP(Cl)(Cl)=NP(Cl)(Cl)=N2)OC1 | – | 2.96 | –
